Measurements taken from PMC8533752, “Characterization of Microtubule Destabilizing Drugs: A Quantitative Cell-Based Assay That Bridges the Gap between Tubulin Based- and Cytotoxicity Assays” (Cancers, 2021).

Experiments:
Type in all cases: cell-based
[1] = system: HeLa cells; test: Cell viability, PrestoBlue assay, HeLa; conditions: Homo sapiens, 48 h, read-out: GI50 (concentration causing 50% cell growth inhibition)
Method: (§1) Cell viability was analyzed using the colorimetric PrestoBlue assay (Gibco Invitrogen, #A13262, Carlsbad, CA, USA). Cells were seeded in 96-well microplates (#655077, Greiner, Courtaboeuf, France) at density of 2500 cells per well and allowed to adhere for 24 h before being treated for 48 h with the drugs at indicated concentrations or corresponding concentrations of DMSO as controls, in a final volume of 90 µL. After 48 h of treatment, 10 µL PrestoBlue was added to each well and cells were incubated for another 45 min. The absorbance of each well was measured using a FLUOstar microplate reader (Excitation: 544 nm; Emission: 580 nm, BMG Lab technology, Champagny/Marne, France). GI50s, i.e., drug concentrations able to reduce cell growth by half, were calculated for each independent experiment using GraphPad Prism software and are presented in the text as means ± SEM.

[2] = system: RPE-1 cells; test: Cell viability, PrestoBlue assay, RPE-1; conditions: Homo sapiens, RPE-1, 48 h, read-out: GI50 (concentration causing 50% cell growth inhibition)
Method: as §1

[3] = system: cellular microtubules in HeLa cells; test: Quantitative immunoluminescent assay of the cellular microtubule content; conditions: Homo sapiens, 0.5 h, read-out: IC50, drug concentration able to reduce the amount of cellular microtubules by half
Method: 7500 HeLa cells were seeded in 96-well microplates (#655086, Greiner bio One, Courtaboeuf, France) in 100 µL of complete medium per well and then incubated at 37 °C in 5% CO2 for 24 h. Cells were then treated for 30 min at 37 °C with the compounds at concentrations ranging from 1 to 5000 nM (1 microplate per molecule, 1 concentration per column), with 0.1% DMSO used as […] control (6 wells per microplate). After medium aspiration, treated cells were permeabilized for 10 min using 100 µL per well of warmed (37 °C) OPT buffer (80 mM Pipes, 1 mM EGTA, 1 mM MgCl2, 0.5% Triton X-100, and 10% glycerol, pH 6.8). Cells were fixed overnight at room temperature using 100 µL per well of 4% formaldehyde (Sigma Aldrich, #252549, Saint-Quentin-Fallavier, France) in PBS. […] Then, cells were washed again with PBS and 100 µL of ECL substrate (#170-5061, Bio-Rad Laboratories inc., USA) were injected in each well using the FLUOstar OPTIMA Microplate Reader (BMG Lab technology, Champagny-sur-Marne, France). The luminescent signal was read immediately after ECL injection. IC50s, i.e., drug concentrations able to reduce the amount of cellular microtubules by half, were calculated for each independent experiment using GraphPad Prism software and are presented in the text as means ± SEM.

## COc1cc2c(c(OC)c1OC)-c1ccc(OC)c(=O)cc1[C@@H](NC(C)=O)CC2 [colchicine]
[1]
  GI50: 9.17 ± 0.6 nM
[2]
  GI50: 30 ± 1.73 nM
[3]
  IC50: 787 ± 81.7 nM
